Results on 5 compounds are retold here after ChEMBL document CHEMBL1143029, “Heme oxygenase inhibition by 2-oxy-substituted 1-(1H-imidazol-1-yl)-4-phenylbutanes: effect of halogen substitution in the phenyl ring” (Bioorg Med Chem, 2007).

Assay [1] has as its target T1, Heme oxygenase 2 (Rattus norvegicus) (UniProt P23711).
T1 sequence (whole entry): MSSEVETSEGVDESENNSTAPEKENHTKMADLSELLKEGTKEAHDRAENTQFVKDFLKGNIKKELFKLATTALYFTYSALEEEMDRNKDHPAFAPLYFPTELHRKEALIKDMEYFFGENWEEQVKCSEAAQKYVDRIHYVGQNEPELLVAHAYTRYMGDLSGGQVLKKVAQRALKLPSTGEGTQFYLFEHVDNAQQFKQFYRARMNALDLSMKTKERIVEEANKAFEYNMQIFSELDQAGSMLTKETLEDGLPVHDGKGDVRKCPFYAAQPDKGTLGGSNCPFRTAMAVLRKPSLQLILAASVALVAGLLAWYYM
In words: Inhibition of Sprague-Dawley rat brain microsome HO2 at 0.1 uM relative to control. The essentials:
(§1)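 Spleen (HO-1) or brain (HO-2) microsomes from Sprague-Dawley rats, at 1 mg/mL protein in 100 mM phosphate buffer pH 7.4 with methemalbumin (heme–albumin) as substrate. Inhibitor hydrochloride pre-incubated 10 min at 37 °C, then 1 mM NADPH added for 15 min at 37 °C. Stopped by freezing on dry ice. CO formed measured by gas chromatography; activity given as percent of no-inhibitor control.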

The species entered for the next assay is Rattus norvegicus. As to the kind of experiment: Selectivity index, ratio of IC50 for Sprague-Dawley rat brain HO2 to IC50 for Sprague-Dawley rat spleen HO1. It counts as tissue-based. A digest of the protocol: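 Ratio of IC50(HO-2) to IC50(HO-1). HO-2 comes from Sprague-Dawley rat brain microsomes and HO-1 from spleen microsomes. Both were assayed identically: methemalbumin substrate, 10 min inhibitor pre-incubation at 37 °C, 15 min reaction with 1 mM NADPH, and CO measured by GC. Each IC50 was derived from sigmoidal dose–response fits of percent-control activity.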

Assay [2] deals with T1, Heme oxygenase 2 (Rattus norvegicus). In words: Inhibition of Sprague-Dawley rat brain microsome HO2 at 100 uM relative to control. A digest of the protocol: as §1
Assay [3] addresses T2, Heme oxygenase 1 (Rattus norvegicus) (UniProt P06762).
T2 sequence (whole entry): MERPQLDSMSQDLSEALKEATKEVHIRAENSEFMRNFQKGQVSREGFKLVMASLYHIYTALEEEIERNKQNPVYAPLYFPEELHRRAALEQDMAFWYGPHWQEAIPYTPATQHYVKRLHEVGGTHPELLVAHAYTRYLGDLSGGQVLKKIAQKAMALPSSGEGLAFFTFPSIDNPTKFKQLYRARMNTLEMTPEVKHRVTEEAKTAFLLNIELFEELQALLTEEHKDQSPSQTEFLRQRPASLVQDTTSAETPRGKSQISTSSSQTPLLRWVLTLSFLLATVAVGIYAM
In words: Inhibition of Sprague-Dawley rat spleen microsome HO1 at 0.1 uM relative to control. The class given is microsomes. The essentials: as §1

Assay [4] concerns the target T2, Heme oxygenase 1 (Rattus norvegicus). Conditions: Sprague-Dawley, Spleen, Microsome, 100 uM.
In the next assay the target is T3, Heme oxygenase 1 (Rattus norvegicus, UniProt P06762).
T3 sequence (P06762 whole entry): T2 sequence (whole entry)
As to the kind of experiment: Inhibition of Sprague-Dawley rat spleen microsome HO1. The class given is microsomes.

For the compound `O=C(CCc1ccc(Cl)cc1)Cn1ccnc1`, the inhibition (in general, how much of the control response was suppressed) in assay [1] amounted to 10%; in assay [2], 60%; in assay [3], 27%; in assay [4], 80%. The Ratio IC50 in the assay filed under Rattus norvegicus came out at 16.4.
Regarding `c1ccc(CCC2(Cn3ccnc3)OCCO2)cc1`, the Ratio IC50 in the assay listed under Rattus norvegicus was greater than 143.
Consider `O=C(CCc1ccc(Br)cc1)Cn1ccnc1`, for which the Ratio IC50 in the assay filed under Rattus norvegicus was 9.2. The inhibition in assay [4] was determined as 80%.
`OC(CCc1ccc(I)cc1)Cn1ccnc1` (stereo unspecified): the IC50 – broadly, the concentration needed to halve the response being measured – at Heme oxygenase 1 came out at 60 nM.
In the case of `OC(CCc1ccc(Br)cc1)Cn1ccnc1` (stereo unspecified), the Ratio IC50 in the assay filed under Rattus norvegicus worked out at 18.6. Further, the inhibition in assay [2] came out at 55%.
